Results as given in patent US20150344559A1.

How the values were obtained:
[1] = biological target: FcγRIIIA recombinant protein (UniProt P08637); assay: ELISA, FcγRIIIA coated on the plate, anti-human IgG-HRP detection; the reference itself
[2] = biological target: Human recombinant TNF-α (human) (UniProt P01375); assay: SPR (Biacore T200), single cycle kinetics, antibody captured on CM5 chip by anti-human Fc antibodies, TNF-α as analyte at 3.125 to 50 nM, 1:1 binding model

Row | Substance | EC50, fold of increase relative to Humira (fold relative to Humira) [1] | Max. binding, fold of increase relative to Humira (fold relative to Humira) [1] | Kd [2] [nM] | koff [2] [s⁻¹] | kon [2] [M⁻¹ s⁻¹]
1 | Adalimumab (Humira®) (antibody) | 1 | 1 |  |  | 
2 | Adalimumab (Humira®) (antibody; other documents disagree on this pair) |  |  | 0.0195 | 3.12e-05 | 1.61e+06
